This experiment has as its target human recombinant PDE5 (Homo sapiens, UniProt O76074). Nature of the experiment: Inhibitory effect on cGMP-PDE (one-step assay, 8-[H3]-cGMP). Conditions: read-out: PDE5 IC50, in vitro. On the procedure: The compounds of structural formula (I) were tested for an ability to inhibit PDE5. The ability of a compound to inhibit PDE5 activity is related to the IC50 value for the compound, i.e., the concentration of inhibitor required for 50% inhibition of enzyme activity. The IC50 value for compounds of structural formula (I) were determined using recombinant human PDE5.
cGMP-PDE activity of compounds of the present invention was measured using a one-step assay adapted from Wells et al., Biochim. Biophys. Acta, 384, 430 (1975). The reaction medium contained 50 mM Tris-HCl, pH 7.5, 5 mM magnesium acetate, 250 μg/ml 5′-Nucleotidase, 1 mM EGTA, and 0.15 μM 8-[H^3]-cGMP. Unless otherwise indicated, the enzyme used was a human recombinant PDE5 (ICOS Corp., Bothell, Wash.).
Compounds of the invention were dissolved in DMSO finally present at 2% in the assay.

For the compound `COc1ccc(CNC(=O)c2ccn3c2Cc2c([nH]c4ccccc24)C3c2ccccc2)cc1OC` (stereo not shown), the IC50 stood at 0.2 µM. Take `O=C(O)c1ccn2c1Cc1c([nH]c3ccccc13)C2c1ccc2c(c1)CCO2` (stereo not shown): the IC50 is 0.004 µM. The value for `COc1ccc(C2c3[nH]c4ccccc4c3Cc3c(C(=O)NCCN4CCOCC4)ccn32)cc1` (stereo not shown) was 0.03 µM; that for `CCc1c(C(=O)NCc2ccccn2)cc2n1C(c1ccc3c(c1)OCO3)c1[nH]c3ccccc3c1C2` (stereo not shown) was 0.28 µM. Turning to `CCOC(=O)c1ccn2c1Cc1c([nH]c3ccccc13)C2c1ccc(OC)cc1` (stereo not shown), the IC50 is 0.0021 µM. With `CN1CCN(NC(=O)c2ccn3c2Cc2c([nH]c4ccccc24)C3c2ccc3c(c2)OCO3)CC1` (stereo not shown), the IC50 stood at 0.04 µM.

As for `CCOC(=O)c1ccn2c1Cc1c([nH]c3ccccc13)C2c1ccccc1` (stereo not shown), the IC50 is 0.08 µM. The value for `CCOC(=O)c1ccn2c1Cc1c([nH]c3ccccc13)C2c1ccc(Cl)cc1` (stereo not shown) was 0.03 µM; that for `CCOC(=O)c1cc(C)n2c1Cc1c([nH]c3ccccc13)C2c1ccc2c(c1)OCO2` (stereo not shown) was 0.02 µM; that for `CCOC(=O)c1cc(CN(C)C)n2c1Cc1c([nH]c3ccccc13)C2c1ccc2c(c1)OCO2` (stereo not shown) was 0.15 µM. Consider `O=C(O)c1ccn2c1Cc1c([nH]c3ccccc13)C2c1ccc2occc2c1` (stereo not shown), for which the IC50 was found to be 0.01 µM. With `CCOC(=O)c1cc(C=O)n2c1Cc1c([nH]c3ccccc13)C2c1ccc2occc2c1` (stereo not shown), the IC50 was determined as 0.0062 µM.

As for `CCOC(=O)c1ccn2c1Cc1c([nH]c3ccccc13)C2c1ccc(C)cc1` (stereo not shown), the IC50 worked out at 0.01 µM. Next, `CCOC(=O)c1cc2n(c1)C(c1ccc(OC)cc1)c1[nH]c3ccccc3c1C2` (stereo not shown): 0.06 µM; `CCOC(=O)c1cc(CC)n2c1Cc1c([nH]c3ccccc13)C2c1ccc2c(c1)OCO2` (racemic): 0.01 µM; `COc1ccc(C2c3[nH]c4ccccc4c3Cc3c(C(=O)NCc4ccc(OC)c(OC)c4)ccn32)cc1` (stereo not shown): 0.11 µM. The value for `CCOC(=O)c1cc(CC)n2c1Cc1c([nH]c3ccccc13)C2c1c(C)cc(OC)cc1C` (stereo not shown) was 0.16 µM; that for `CCOC(=O)c1cc2n(c1)C(c1ccccc1)c1[nH]c3ccccc3c1C2` (stereo not shown) was 0.59 µM.

Consider `CCOC(=O)c1cc2n(c1)C(c1ccc3c(c1)OCO3)c1[nH]c3ccccc3c1C2` (stereo not shown), for which the IC50 was 0.04 µM. Regarding `CCOC(=O)c1ccn2c1Cc1c([nH]c3ccccc13)C2c1ccc2occc2c1` (stereo not shown), the IC50 came to 0.0071 µM. Next, `CCOC(=O)c1cc2n(c1CC)C(c1ccc3c(c1)OCO3)c1[nH]c3ccccc3c1C2` (stereo not shown): 0.46 µM; `COc1ccc(C2c3[nH]c4ccccc4c3Cc3c(C(=O)O)ccn32)cc1` (stereo not shown): 0.01 µM.

The term IC50 denotes the concentration needed to halve the response being measured.

For the origin of these results see US6838456B2, “Condensed pyridoindole derivatives” (Lilly ICOS LLC, priority 2000, dated 2005).
